In patent US8440814B2, “Derivatives of cyclodextrins, process for their preparation and their use in particular for solubilizing pharmacologically active substances” (Centre National de la Recherche Scientifique, priority 2003, dated 2013):

Target: concanavalin A (ConA) lectin (Canavalia ensiformis, UniProt P02866)
Format: binding
Description: The affinity of the thioureidocysteaminyl-cyclodextrins of the invention for specific membrane lectins was evaluated in vitro following the ELLA (Enzyme-Linked Lectin Assay) protocol. […] 2002, 102, pp. 555-578. This technique measures the capacity of a soluble mono- or oligosaccharide ligand to inhibit the association between a complementary lectin and another reference ligand fixed to a plastic support microplate.
The IC50 values are inversely proportional to the respective affinities. […]
In order to determine the optimal lectin concentration for inhibition studies, 100 μL of a series of concanavalin A solutions marked with radish peroxidase of 10^−1 to 10^−5 mg·mL^−1 in PBS is added to the cells loaded with mannan, and treated as indicated above. […] The reaction is stopped after 20 minutes by adding 50 μL/cell of sulphuric acid 1 M and the absorbances are measured at 415 nm using an ELISA reader. […]
In a series of experiments ConA marked with radish peroxidase in an appropriate concentration as indicated above (60 μL/cell) is added to the solutions of each compound (60 μL/cell) in PBS sequentially diluted twice, in a Nunclon™ (Delta) microtitre plate which is incubated at 37° C. for 1 hour. […] After 20 minutes, the reaction is stopped (sulphuric acid) and the absorbances are measured. The percentage of inhibition is calculated with the formula: […]

Substance | IC50 (read-out: IC50) | IC50
heptakis[6-S-[2-N′-[2,2,2-tris[5-(1-thio-α-D-mannopyranosyl)-2-oxapentyl]ethyl]thioureido]ethyl-6-thio]cyclomaltoheptaose [Compound No. 4] | 5 µM | –
heptakis[6-S-[2-N′-[2,2,2-tris[5-(1-thio-β-D-glucopyranosyl)-2-oxapentyl]ethyl]thioureido]ethyl-6-thio]cyclomaltoheptaose [Compound No. 5] | – | n.i.^a

Where two headings read alike, the source gives them in different places.
